System: kinases of Table 6 on Myelin Basic Protein (MBP)
Assay: Kinase assay using MBP substrate, ProQ Diamond stain (Table 6)
Format: biochemical
Settings: kinase printed on MBP-coated slide; 20 uM ATP, 30° C.; ProQ Diamond Microarray Stain; graded Strong/Weak/Negative

CDK1/cyclin B
MBP Kinase Activity: Strong

— patent publication US20090099029A1, “Methods and substrates for conducting assays” (Invitrogen Corporation, priority 2005, published 2009)
